# Assay results: PubChem BioAssay AID761 (NMMLSC, 2007)
# The chains behind the UniProt entries cited, without tags or fusion partners.
# UniProt P60953, whole entry: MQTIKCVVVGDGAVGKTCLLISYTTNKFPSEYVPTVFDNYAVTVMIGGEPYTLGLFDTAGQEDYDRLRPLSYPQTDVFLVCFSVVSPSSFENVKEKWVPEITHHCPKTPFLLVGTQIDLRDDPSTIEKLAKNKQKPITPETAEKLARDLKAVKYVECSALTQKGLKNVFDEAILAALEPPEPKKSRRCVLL
# The entries are a selection whose mix differs from that of the whole data set. Some results for these compounds are left out of this collection, so the calls shown say nothing about other tests. Calls of active or inactive are those of the source.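 Rule for the calls: active = percent activity GTP binding at least 20 points away from the 100% baseline, either down as inhibitor or up as activator; inconclusive = compound flagged as likely green fluorescent from well-wide comparison; inactive = the rest.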
# Target: Cell division control protein 42 homolog (Homo sapiens) (UniProt P60953)
# Assay: wildtype Cdc42 fluorescent GTP binding changes, either direction – biochemical, multiplex bead flow cytometry, Bodipy-GTP, primary screen (AID 761);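 note: median bead fluorescence of bound Bodipy-FL-GTP at 100 nM; 0% = excess unlabeled GTP control and 100% = no compound control; below 100% means less GTP binding so inhibitor and above means activator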
# Conditions: GST-Cdc42 beads, at 10 µM, actives lie on both sides
row,Structure (SMILES),percent activity (GTP binding)
1,COc1cccc(C(=O)NCC2(N3CCCCC3)CCCCC2)c1,inactive: 96%
2,CN(C)c1cccc(C(=O)NCC2(N(C)C)CCCCC2)c1,inactive: 104%
3,O=C(OC1CN2CCC1CC2)C(CO)(c1ccccc1)c1ccccc1 (centres undefined),inactive: 99%
4,CC(C)N1C(=O)CC2(CCN(CCOC(=O)C(O)(c3ccccc3)c3ccccc3)CC2)C1=O,inactive: 104%
5,O=C(NCC1(N2CCCCC2)CCCCC1)c1cc([N+](=O)[O-])ccc1Cl,inactive: 94%
6,C=CCN1CCN(CCOC(=O)C(O)(c2ccccc2)c2ccccc2)CC1,inactive: 97%
7,CCN1CCCC(OC(=O)C2(O)c3ccccc3C=Cc3ccccc32)C1 (centres undefined),inactive: 100%
8,CN(C)C1CCCC1OC(=O)C(O)(c1ccccc1)c1ccccc1 (centres undefined),inactive: 103%
9,Cc1ccccc1C(=O)NCC1(N2CCCCC2)CCCCC1,inactive: 97%
